{
  "source": "paper PMC5748754",
  "about": "“Elucidating the Skin Delivery of Aglycone and Glycoside Flavonoids: How the Structures Affect Cutaneous Absorption” (Nutrients, 2017)",
  "key": {"[1]": {"experiment": "Capacity factor (log K') by HPLC", "type": "physicochemical", "conditions": "HPLC C18, methanol/pH 2 phosphate buffer 1:1", "description": "The HPLC setup for the calculation of log K’ was an HPLC system (7-series, Hitachi, Tokyo, Japan) with a LiChrospher® C18 column (200 × 4.6 mm, Merck, Darmstadt, Germany). The mobile phase consisted of a mixture of methanol and pH 2 phosphate buffer solution (1:1). The flow rate and wavelength for determination were 1 mL/min (L-7110 pump) and 256 nm (L-7455 diode array detector), respectively. The retention times of flavonoids were detected, and the log K’ was computed as log [(tr − t0)/t0], where tr and t0 were the retention time of the flavonoid and the nonretained solvent peak, respectively."}, "[2]": {"experiment": "Partition coefficient (log P), n-octanol/water", "type": "physicochemical", "conditions": "37 °C, 24 h", "description": "Flavonoids in methanol (0.5 mg/mL) were pipetted into a tube at a volume of 1 mL. Methanol was then evaporated under vacuum. In the amount of 1 mL of each, n-Octanol and water were incorporated into the tube. After being shaken for 24 h at 37 °C, the tube was centrifugated at 10,000× g for 10 min. The flavonoid content in both phases was analyzed by HPLC. The log P was calculated as log (flavonoid content in n-octanol/flavonoid content in water)."}},
  "data": [
    {"substance": "Kaempferol", "values": [
      {"measurement": "log K’", "setting": "[1]", "result": 0.65},
      {"measurement": "log P", "setting": "[2]", "result": "3.71 ± 0.57"}
    ]},
    {"substance": "Naringenin", "values": [
      {"measurement": "log K’", "setting": "[1]", "result": 0.51},
      {"measurement": "log P", "setting": "[2]", "result": "3.21 ± 0.04"}
    ]},
    {"substance": "Naringin", "values": [
      {"measurement": "log K’", "setting": "[1]", "result": 0.19},
      {"measurement": "log P", "setting": "[2]", "result": "0.15 ± 0.04"}
    ]},
    {"substance": "Quercetin", "values": [
      {"measurement": "log K’", "setting": "[1]", "result": 0.51},
      {"measurement": "log P", "setting": "[2]", "result": "3.32 ± 0.09"}
    ]}
  ]
}
